Measured values as given in patent US20240374724A1, “ENPP1 INHIBITORS AND IMMUNE CELLS EXPRESSING CHIMERIC ANTIGEN RECEPTORS” (Angarus Therapeutics, Inc., priority 2021, published 2024).

Tested on: 4T1-luciferase tumor
Experiment: 4T1-luciferase tumor model: IR with compound 1, cGAMP and/or anti-CTLA-4; tumor volume and survival
Assay type: in vivo, Balb/c mice
[1] = 20 Gy IR + compound 1 in addition to cGAMP, intratumoral

COc1cc2ncnc(N3CCC(CCP(=O)(O)O)CC3)c2cc1OC [compound 1]
tumor shrinkage (20 Gy IR + compound 1 (100 μL of 100 μM intratumoral, day 2, 4, 7)): enhanced tumor shrinkage effects of IR treatment, although not significantly
survival [1]: prolonged survival
tumor shrinkage [1]: synergistically shrunk tumors
anti-tumor effect (survival) (IR pretreatment with compound 1 and anti-CTLA-4): significant synergistic effects
survival (without IR, anti-CTLA-4 and compound 1 (1 mM intratumoral)): no effect on prolonging survival
